These are literature values, as cited in US11116209B2, “Polymeric composite-pesticide plugs and related methods” (priority 2017, dated 2021).

Regarding emamectin benzoate, the water solubility entry is listed as “about 24 mg/L”.
